Earlier results in patent publication US20250241992A1, “COMPOSITIONS AND METHODS FOR TREATING METABOLIC DISEASES” (Gila Therapeutics, Inc., priority 2018, published 2025).

Conditions: acute increase of salivary PYY(3-36)

Substance: PYY(3-36)
- one hour food intake: decrease in one hour food intake in a dose dependent manner
